Assay results as given in patent US5616716A, “(3-(5-ethoxypyridin)yl)-alkenyl 1 amine compounds” (priority 1996, dated 1997).

Amino acid sequences for entries named in this document (tags omitted). Residues count along the entry.
UniProt P04757, 26-499: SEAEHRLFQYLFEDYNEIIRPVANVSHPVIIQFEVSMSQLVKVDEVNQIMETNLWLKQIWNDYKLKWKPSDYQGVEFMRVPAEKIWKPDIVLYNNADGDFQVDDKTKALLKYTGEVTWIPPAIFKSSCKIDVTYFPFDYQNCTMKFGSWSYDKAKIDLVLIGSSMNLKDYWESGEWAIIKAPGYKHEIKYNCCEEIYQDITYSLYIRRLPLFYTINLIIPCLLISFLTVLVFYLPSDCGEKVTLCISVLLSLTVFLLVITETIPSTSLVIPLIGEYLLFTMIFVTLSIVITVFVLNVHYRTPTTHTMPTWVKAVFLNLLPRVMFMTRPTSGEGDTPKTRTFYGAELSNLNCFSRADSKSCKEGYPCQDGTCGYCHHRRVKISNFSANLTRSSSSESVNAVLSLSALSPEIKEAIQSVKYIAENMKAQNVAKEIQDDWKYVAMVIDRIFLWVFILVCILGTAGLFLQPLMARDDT
UniProt P12392, 21-495: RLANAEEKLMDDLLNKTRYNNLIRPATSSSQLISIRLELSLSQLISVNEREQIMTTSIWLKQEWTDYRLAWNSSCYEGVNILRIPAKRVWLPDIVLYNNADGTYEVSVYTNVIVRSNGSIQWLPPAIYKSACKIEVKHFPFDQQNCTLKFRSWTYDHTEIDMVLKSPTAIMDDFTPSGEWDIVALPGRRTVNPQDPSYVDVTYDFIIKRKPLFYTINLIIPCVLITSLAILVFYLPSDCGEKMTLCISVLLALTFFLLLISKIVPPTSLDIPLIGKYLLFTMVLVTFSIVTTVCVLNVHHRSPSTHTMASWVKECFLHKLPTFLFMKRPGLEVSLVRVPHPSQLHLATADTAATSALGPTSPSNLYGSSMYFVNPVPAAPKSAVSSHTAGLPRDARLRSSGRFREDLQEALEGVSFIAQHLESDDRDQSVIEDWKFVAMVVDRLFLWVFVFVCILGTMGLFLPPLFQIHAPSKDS

Assays:
nicotinic receptors = assay: Binding of compounds to relevant receptor sites (inhibition of L-[^3 H]nicotine binding, rat brain membranes); parameters: species or system rat (Sprague-Dawley); settings: inhibition of L-[^3 H]nicotine (10 nM) binding
Procedure: Rats (Sprague-Dawley) were maintained on a 12 hour light/dark cycle and were allowed free access to water and food supplied by Wayne Lab Blox, Madison, Wis. Animals used in the present studies weighed 200 to 250 g. Brain membrane preparations were obtained from brain tissue of either males or females.
Rats were killed by decapitation following anesthesia with 70% CO2. Brains were removed and placed on an ice-cold platform.
The incubation buffer was Krebs-Ringers HEPES containing 200 mM TRIS buffer, pH 7.5. The binding reaction was terminated by filtration of the protein containing bound ligand onto glass fiber filters (Micro Filtration Systems) that had been soaked in buffer containing 0.5 percent polyethyleneimine. Filtration vacuum was -50 to -100 torr. Each filter was washed five times with 3 ml of ice-cold buffer. […] Nonspecific binding was determined by inclusion of 10 uM nonradioactive nicotine in the incubations.
The inhibition of L-[^3 H]nicotine binding by test compounds was determined by including one of eight different concentrations of the test compound in the incubation.

[1] = molecular target: T1, ganglionic-type neuronal nicotinic receptors (PC12) (Rattus norvegicus, UniProt P04757+P12392); assay type: cell-based; settings: PC12, ^86 Rb^+ efflux; percentage of maximal activation induced by (S)-(-)-nicotine
T1 construct: Ganglionic effects were established on the rat pheochromocytoma clonal line PC12; endogenous in cells; host or cells: PC12 (rat pheochromocytoma)
Source text: Determination of Interaction with Ganglia
Ganglionic effects were established on the rat pheochromocytoma clonal line PC12, which is a continuous clonal cell line of neural crest origin derived from a tumor of the rat adrenal medulla expressing ganglionic-typeneuronal nicotinic receptors (see Whiting et al., Nature, Vol. 327, pp. 515-518 (1987); Lukas, J. Pharmacol. Exp. Ther., Vol. 251, pp. 175-182 (1989); Whiting et al., Mol. Brain Res., Vol. 10, pp. 61-70 (1990)). Discussion concerning the heterogeneity of nicotinic receptors subtypes is set forth in Lukas et al. Internatl. Review Neurobiol., Vol. 34, pp. 25-130 (1992). Acetylcholine nicotinic receptors expressed in rat ganglia share a very high degree of homology with their human counterparts. […]
Nicotinic acetylcholine receptor (nAChR) function was assayed using ^86 Rb^+ efflux according to a method described by Lukas et al., Anal. Biochem., Vol. 175, pp. 212-218 (1.988). […] The medium was removed and ^86 Rb^+ was quantitated using Cerenkov detection (see Lukas et al., Anal. Biochem., Vol. 175, pp. 212-218 (1988)). Specific ion efflux was determined as the difference in isotope efflux between total and non-specific efflux samples. Dose-response curves were plotted and the concentration resulting in half maximal activation of specific ion flux through nicotinic receptors determined for human muscle and rat ganglionic preparations (EC50).

Question: How did the Ki (nicotinic receptors) turn out when `CNCC/C=C/c1cccnc1` [Sample No. C-2, (E)-metanicotine, reference compound] was run?
Answer: 26 nM

Question: What about the “Ganglion Effect Emax” value [1] of the same compound?
Answer: 0%
